The conditions of the data set: isolated product (early fractions), precipitated with ethanol.

For ascorbic gallate ester [Example 7], the solubility in water entry is on record as “water soluble”.

Source of the values: patent US20170238569A1, “EDIBLE FOOD PRESERVATIVE” (EMPIRE TECHNOLOGY DEVELOPMENT LLC, priority 2016, published 2017).
